Test results as given in US20250171753A1, “PEPTIDE AND USE THEREOF IN THE PREVENTION OF THERAPY-RELATED LEUKEMIA” (UNIVERSITÄT ULM, priority 2022, published 2025).

Test system: MLLbcr rearrangements in K562/MLL cells
Experiment: Fluorescence-based (EGFP reconstitution) recombination assay for MLLbcr rearrangements in K562/MLL cells after doxorubicin
Assay type: cell-based, human
Conditions: expression plasmid electroporated into K562/MLL; 2 μM doxorubicin 4 h; 72 h culture; vs empty vector
Method: Human K562/MLL cells, derived from K562 leukemia cells, with chromosomally integrated plasmid pHR-EGFP/3′ EGFP-MLLbcr.fwd (Ireno et al. Arch Toxicol. 2014, 88(5):1141-59) were cultured in RPMI1640 medium (Gibco/Thermo Fisher Scientific, Waltham, Massachusetts, USA) and HeLa/MLL cells also with chromosomally integrated plasmid pHR-EGFP/3′EGFP-MLLbcr.fwd (Gole et al. 2015, Oncogene 34: 3391-401), were cultured in DMEM medium (Gibco/Thermo Fisher Scientific, Waltham, Massachusetts, USA) at 37° C. and 5% CO2. Both media were supplemented with 10% foetal bovine serum (Biochrom, Berlin, Germany) and 1% L-glutamine (Gibco/Thermo Fisher Scientific). To split the cultures, the HeLa/MLL cells were treated with 1×PBS (Gibco/Thermo Fisher Scientific), washed, and detached from the surface with trypsin/EDTA (PAN Biotech, Aidenbach, Germany) before a portion was transferred to the new culture flask. The cells used were free of mycoplasma according to PCR assay. […]
Use of the fluorescence-based assay system for recombination measurements with K562/MLL or HeLa/MLL cells with chromosomally integrated plasmid pHR-EGFP/3′EGFP-MLLbcr.fwd is described in detail in Ireno et al. 2014 and Gole et al. 2015, respectively. […] This suspension was transferred to FACS tubes and the fluorescence of the cells was detected on the FACSCalibur™ (BD Biosciences, San Jose, California, USA). […]

Substance: wtKu80: human wild-type Ku80, full length, expressed from plasmid
- effect on MLLbcr rearrangements (recombination frequency), in words: no effect
